# Test results taken from US8959984B2, “Proteome-wide quantification of small molecule binding to cellular target proteins” (priority 2007, dated 2015).
# Protein sequences, listed by entry. Tags and fused reporters are not part of them. Lines headed by an entry give the natural chain unless they say otherwise; changes in a name come on top.
# UniProt Q13233: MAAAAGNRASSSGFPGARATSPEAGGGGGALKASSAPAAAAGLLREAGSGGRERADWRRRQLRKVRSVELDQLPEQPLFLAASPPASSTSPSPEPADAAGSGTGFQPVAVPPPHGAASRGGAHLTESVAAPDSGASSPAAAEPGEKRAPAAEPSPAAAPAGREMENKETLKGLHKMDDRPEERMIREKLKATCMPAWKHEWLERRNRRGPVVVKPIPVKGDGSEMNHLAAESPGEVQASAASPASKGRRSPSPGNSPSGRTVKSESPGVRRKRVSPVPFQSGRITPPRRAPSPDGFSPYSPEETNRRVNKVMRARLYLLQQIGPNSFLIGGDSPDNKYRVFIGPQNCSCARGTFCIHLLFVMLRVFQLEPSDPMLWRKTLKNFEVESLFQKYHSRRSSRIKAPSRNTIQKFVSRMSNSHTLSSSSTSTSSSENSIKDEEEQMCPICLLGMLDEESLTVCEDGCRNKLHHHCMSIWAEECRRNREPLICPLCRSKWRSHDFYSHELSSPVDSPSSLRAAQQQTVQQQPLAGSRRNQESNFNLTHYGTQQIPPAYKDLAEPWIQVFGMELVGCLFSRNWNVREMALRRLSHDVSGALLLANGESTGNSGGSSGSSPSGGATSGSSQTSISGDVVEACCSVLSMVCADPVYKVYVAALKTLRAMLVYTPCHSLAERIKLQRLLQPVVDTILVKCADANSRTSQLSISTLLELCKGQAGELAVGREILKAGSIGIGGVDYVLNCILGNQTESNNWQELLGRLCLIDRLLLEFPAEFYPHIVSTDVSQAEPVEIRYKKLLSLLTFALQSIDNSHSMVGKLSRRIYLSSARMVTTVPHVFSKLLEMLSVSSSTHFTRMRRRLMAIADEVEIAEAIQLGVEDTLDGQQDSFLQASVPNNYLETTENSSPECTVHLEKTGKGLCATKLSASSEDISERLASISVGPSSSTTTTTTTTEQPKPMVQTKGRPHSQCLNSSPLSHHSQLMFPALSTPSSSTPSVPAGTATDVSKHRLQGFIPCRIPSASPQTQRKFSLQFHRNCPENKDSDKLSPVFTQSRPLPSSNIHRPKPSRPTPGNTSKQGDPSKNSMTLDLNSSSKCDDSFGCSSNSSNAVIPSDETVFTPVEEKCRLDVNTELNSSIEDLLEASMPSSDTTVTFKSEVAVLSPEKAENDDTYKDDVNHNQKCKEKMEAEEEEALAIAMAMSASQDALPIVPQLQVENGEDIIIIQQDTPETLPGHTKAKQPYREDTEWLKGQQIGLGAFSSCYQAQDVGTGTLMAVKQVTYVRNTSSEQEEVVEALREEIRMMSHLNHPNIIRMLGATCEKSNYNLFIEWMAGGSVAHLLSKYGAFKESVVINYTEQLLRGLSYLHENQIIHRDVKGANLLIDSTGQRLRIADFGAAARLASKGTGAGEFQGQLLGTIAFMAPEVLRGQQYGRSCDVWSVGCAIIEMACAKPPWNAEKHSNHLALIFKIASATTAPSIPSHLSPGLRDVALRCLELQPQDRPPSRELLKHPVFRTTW
# UniProt Q96AB3: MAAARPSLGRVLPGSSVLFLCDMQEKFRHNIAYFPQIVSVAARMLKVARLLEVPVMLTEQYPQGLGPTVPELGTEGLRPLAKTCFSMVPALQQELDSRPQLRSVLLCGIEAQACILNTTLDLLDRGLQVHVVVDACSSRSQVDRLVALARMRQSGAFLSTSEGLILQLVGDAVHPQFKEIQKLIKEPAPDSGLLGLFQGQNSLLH
# Experiments:
# Assay in all cases: Ki determination for immobilized VI16742: two consecutive incubations, control beads, ligand concentration and incubation time controls (Tables 7, 8)
# Assay type in all cases: binding
# [1] = molecular target: T1, cellular target proteins in HeLa cell lysate (Homo sapiens, UniProt O94768); settings: Ki (VI16742), DRAK2 (STK17B) IPI00014934
# T1 sequence (O94768 1-372): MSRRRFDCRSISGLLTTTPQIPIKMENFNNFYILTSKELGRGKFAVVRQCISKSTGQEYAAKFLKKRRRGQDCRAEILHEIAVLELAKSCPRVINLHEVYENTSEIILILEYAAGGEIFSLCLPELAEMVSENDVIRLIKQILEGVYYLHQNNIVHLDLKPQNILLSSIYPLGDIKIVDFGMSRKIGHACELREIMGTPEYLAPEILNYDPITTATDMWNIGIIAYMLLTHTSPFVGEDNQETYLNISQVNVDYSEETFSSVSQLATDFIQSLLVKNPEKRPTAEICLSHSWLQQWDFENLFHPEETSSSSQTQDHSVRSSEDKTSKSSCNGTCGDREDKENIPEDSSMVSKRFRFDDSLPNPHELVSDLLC
# [2] = molecular target: cellular target proteins in HeLa cell lysate (Homo sapiens, UniProt P24941); settings: Ki (VI16742), CDK2 IPI00031681
# [3] = molecular target: cellular target proteins in HeLa cell lysate (Homo sapiens, UniProt Q13233); settings: Ki (VI16742), MAP3K1 IPI00855985
# [4] = molecular target: cellular target proteins in HeLa cell lysate (Homo sapiens, UniProt Q96AB3); settings: Ki (VI16742), ISOC2 IPI00003031
# [5] = molecular target: T2, cellular target proteins in HeLa cell lysate (Homo sapiens, UniProt Q9NRH2)
# T2 sequence (Q9NRH2 1-765): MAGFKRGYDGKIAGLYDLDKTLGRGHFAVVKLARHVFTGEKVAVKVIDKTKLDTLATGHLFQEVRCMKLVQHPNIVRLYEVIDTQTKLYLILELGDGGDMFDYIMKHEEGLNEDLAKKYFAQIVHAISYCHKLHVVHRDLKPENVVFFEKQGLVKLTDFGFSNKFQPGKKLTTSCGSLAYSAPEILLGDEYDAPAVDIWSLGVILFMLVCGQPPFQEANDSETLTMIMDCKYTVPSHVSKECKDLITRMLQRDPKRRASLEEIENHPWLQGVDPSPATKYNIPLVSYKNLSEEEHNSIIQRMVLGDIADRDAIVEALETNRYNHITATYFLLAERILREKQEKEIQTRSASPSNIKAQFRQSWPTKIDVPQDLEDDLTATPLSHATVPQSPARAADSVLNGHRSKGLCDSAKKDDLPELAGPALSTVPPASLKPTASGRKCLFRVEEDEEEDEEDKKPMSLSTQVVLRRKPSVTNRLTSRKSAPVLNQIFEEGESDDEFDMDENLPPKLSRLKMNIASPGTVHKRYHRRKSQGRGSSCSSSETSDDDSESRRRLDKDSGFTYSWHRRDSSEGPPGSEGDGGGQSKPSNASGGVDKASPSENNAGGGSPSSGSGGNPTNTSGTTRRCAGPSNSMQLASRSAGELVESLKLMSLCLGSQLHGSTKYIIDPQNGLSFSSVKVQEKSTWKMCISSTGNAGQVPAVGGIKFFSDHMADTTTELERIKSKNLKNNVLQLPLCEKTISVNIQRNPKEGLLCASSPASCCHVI
# [6] = molecular target: T3, cellular target proteins in HeLa cell lysate (Homo sapiens, UniProt Q9UEE5)
# T3 sequence (Q9UEE5 1-414): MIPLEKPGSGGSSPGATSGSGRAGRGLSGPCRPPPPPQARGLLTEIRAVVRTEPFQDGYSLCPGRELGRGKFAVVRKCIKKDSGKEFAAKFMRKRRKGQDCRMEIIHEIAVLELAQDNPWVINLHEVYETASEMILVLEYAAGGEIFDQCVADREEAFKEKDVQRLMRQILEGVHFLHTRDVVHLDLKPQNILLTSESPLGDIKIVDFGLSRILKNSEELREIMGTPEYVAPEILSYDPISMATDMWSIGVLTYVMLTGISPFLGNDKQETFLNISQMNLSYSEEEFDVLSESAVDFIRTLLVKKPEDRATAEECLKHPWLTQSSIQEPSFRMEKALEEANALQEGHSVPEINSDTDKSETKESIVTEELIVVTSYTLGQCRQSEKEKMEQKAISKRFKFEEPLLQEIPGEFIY
structure (smiles),measurement,setting,value
CC(C)n1c(=O)ccc2cnc(Nc3ccc(OCCN)cc3)nc21 [V16742],Ki,[1],3.75 µM
same,Ki,[2],3.69 µM
same,Ki,[3],22 µM
same,Ki,[4],75.1 µM
same,Ki,[5],60.7 µM
same,Ki,[6],11.8 µM
